# Measurements published in PubChem BioAssay AID2097 (Broad Institute, 2009).
# By UniProt entry, the sequences of proteins in these tests, tags left out. Where a name states a change or a piece, a line headed by the entry shows the natural chain unless it says otherwise.
# UniProt P49841: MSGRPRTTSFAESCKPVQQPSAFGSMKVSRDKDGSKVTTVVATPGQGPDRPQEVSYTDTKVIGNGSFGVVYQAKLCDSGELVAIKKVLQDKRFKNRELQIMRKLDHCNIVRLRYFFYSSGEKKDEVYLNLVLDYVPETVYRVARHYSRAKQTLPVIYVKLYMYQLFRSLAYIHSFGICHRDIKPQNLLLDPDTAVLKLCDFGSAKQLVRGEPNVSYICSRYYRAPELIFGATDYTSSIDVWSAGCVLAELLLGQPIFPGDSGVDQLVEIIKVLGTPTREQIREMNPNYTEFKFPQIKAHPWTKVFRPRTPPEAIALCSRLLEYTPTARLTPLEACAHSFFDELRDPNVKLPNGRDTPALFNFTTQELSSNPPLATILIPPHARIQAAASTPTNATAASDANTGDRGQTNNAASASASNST
# This is a selection; strong and weak results do not stand in their true shares. Active and inactive are the calls of the source.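 The calls were made as follows: active = more than half of replicate wells score below -50%, meaning over 50% inhibition versus plate controls; inconclusive = some replicates but at most half score below -50%; inactive = no replicate scores below -50%.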
# Target: Glycogen synthase kinase-3 beta (Homo sapiens) (UniProt P49841)
# Assay: human GSK3beta kinase inhibitors, primary screen, biochemical, cell-free homogeneous, HTS (AID 2097);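 also: 0% = median DMSO wells and -100% = median GW8510 positive control wells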
# Details: GST-GSK3beta kinase, ADP-Glo luminescence, 60 min; at 10 µM; active compounds read low
row,Structure (SMILES),activity score (negative = inhibition)
1,COc1cc(C(=O)NCC2(N3CCOCC3)CCCCC2)cc(Cl)c1OC(C)C,inactive: 3.48%
2,O=[As](O)(O)c1cccnc1,inactive: 1.06%
3,O=C(OC1CN2CCC1CC2)c1ccc(Cl)cc1 (centres undefined),inactive: 2.11%
4,CN(C(=O)Cc1ccc(Cl)c(Cl)c1)[C@H]1CC[C@@]2(CCCO2)C[C@@H]1N1CCCC1,inactive: -0.539%
5,CN(C)C(=O)c1cc([N+](=O)[O-])cc2c1-c1c(cc([N+](=O)[O-])cc1[N+](=O)[O-])C2=O,inactive: 0.0979%
6,O=[N+]([O-])c1ccc2c(c1)nnn2O,inactive: -1.59%
7,CN(C(=O)Cc1ccccc1)[C@@H]1CC[C@]2(CCCO2)C[C@H]1N1CCCC1,inactive: 5.5%
8,CCOP1(=S)c2c(C)nn(CCC#N)c2N=C(c2ccc(F)cc2)N1C (centres undefined),inactive: -3.67%
9,N#CCCN(C(=O)COC(=O)C(O)(c1ccccc1)c1ccccc1)c1ccc(F)cc1,inactive: -1.3%
10,NC(=O)Nc1ccc([As](=O)(O)O)cc1,inactive: -4.26%
11,Nc1ccccc1[As](=O)(O)c1ccccc1,inactive: -0.183%
12,O=C(O)COc1ccc([As](=O)(O)O)cc1[N+](=O)[O-],inactive: 1.41%
13,CS(=O)(=O)c1cc([N+](=O)[O-])c2no[n+]([O-])c2c1,inactive: -3.94%
14,O=P(Nc1nccs1)(c1ccccc1)c1nc2ccccc2s1 (centres undefined),inactive: -0.55%
15,O=P(Nc1nccs1)(Oc1ccccc1)Oc1ccccc1,inactive: -0.41%
16,CCOP1(=S)c2c(C)nn(CCC#N)c2N=C(c2ccccc2F)N1C (centres undefined),inactive: -0.117%
17,O=[N+]([O-])c1cc([N+](=O)[O-])c(-c2ccn[nH]2)s1,inactive: 0.403%
18,CCN(CC)C(=S)SC(NC=O)C(Cl)(Cl)Cl (centres undefined),inactive: -1.44%
19,CC(C)NC(=O)NP(=O)(Oc1ccccc1)Oc1ccccc1,inactive: -0.192%
20,CC(C)c1ccc(OP(=O)(Nc2ccccn2)Oc2ccccc2F)cc1 (centres undefined),inactive: 1.35%
21,ClCCSc1nnc(-c2cccnc2)o1,inactive: -0.105%
22,Cc1ccc2nc3c(c(C)c2c1)CC(C(Cl)Cl)S3 (centres undefined),inactive: 1.32%

row,Structure (SMILES),activity score (negative = inhibition)
1,Cc1ccc(OP(=O)(Nc2ccc([N+](=O)[O-])cn2)Oc2ccc(C)cc2)cc1,inactive: 4.91%
2,C[As](=O)(O)c1cccc(C(=O)O)c1,inactive: 0.686%
3,O=[As](O)(c1ccc(O)cc1)c1ccccc1O,inactive: -0.00534%
4,COc1ccc(N/C(=N/P(=O)(N2CCOCC2)N2CCOCC2)N2CCOCC2)cc1,inactive: 0.012%
5,COc1cc(I)ccc1[As](=O)(O)O,inactive: -1.61%
6,COc1ccc2nc(NP(=O)(c3ccccc3)c3ccccc3)sc2c1,inactive: 4.45%
7,Cc1cc(=O)[nH]c(N[N+](=O)[O-])n1,inactive: -1.15%
8,O=C(OC1CN2CCC1CC2)C12CC3CC(CC(C3)C1)C2 (centres undefined),inactive: -10.3%
9,Cc1c2c(nc3ccccc13)SC(C(Cl)Cl)C2 (centres undefined),inactive: 0.244%
10,CCC(C)N(CC(C)C)C(=S)SC(NC(C)=O)C(Cl)(Cl)Cl (centres undefined),inactive: -0.429%
11,CCOC(=O)c1ccc(NC(=O)C(C)(CCl)SC)cc1 (centres undefined),inactive: 0.597%
12,O=C(OC1CN2CCC1CC2)c1cccc([N+](=O)[O-])c1 (centres undefined),inactive: 0.525%
13,O=C(Nc1ccncc1[N+](=O)[O-])c1ccc([N+](=O)[O-])cc1[N+](=O)[O-],inactive: -7.74%
14,O=C(COc1ccccc1)OC1CN2CCC1CC2 (centres undefined),inactive: 4.4%
15,COP1(=S)c2c(C)nn(CCC#N)c2N=C(c2ccc(F)cc2)N1C (centres undefined),inactive: -0.537%
16,O=[N+]([O-])c1ccc(Nc2ccc(Oc3ccc([N+](=O)[O-])cc3[N+](=O)[O-])cc2)c([N+](=O)[O-])c1,inactive: -1.61%
17,O=P(Nc1ccccn1)(c1cccc2ccccc12)c1cccc2ccccc12,inactive: -4.86%
18,Cc1cc(SC(NC=O)C(Cl)(Cl)Cl)ncn1 (centres undefined),inactive: -1.43%
19,CCOC(=O)Nc1cccc([As](=O)(O)O)c1,inactive: 0.674%
20,Cc1cc(SC(NC(=O)c2ccccc2)C(Cl)(Cl)Cl)nc(C(C)C)n1 (centres undefined),inactive: -0.859%
21,CCCCOc1ccc(C(=O)NCC2(N3CCCCC3)CCCCC2)cc1OC,inactive: -0.124%
22,CCOC(=O)Nc1ccc([As](=O)(O)O)c(O)c1,inactive: -20.2%
